This is an account of results in ChEMBL document CHEMBL5729324, “Aromatic heterocyclic substituted olefin compound, preparation method for same, pharmaceutical composition of same, and applications thereof” (2022).

The test deals with T1, TGF-beta receptor type-1 (Homo sapiens, UniProt P36897).
T1 sequence (P36897 whole entry): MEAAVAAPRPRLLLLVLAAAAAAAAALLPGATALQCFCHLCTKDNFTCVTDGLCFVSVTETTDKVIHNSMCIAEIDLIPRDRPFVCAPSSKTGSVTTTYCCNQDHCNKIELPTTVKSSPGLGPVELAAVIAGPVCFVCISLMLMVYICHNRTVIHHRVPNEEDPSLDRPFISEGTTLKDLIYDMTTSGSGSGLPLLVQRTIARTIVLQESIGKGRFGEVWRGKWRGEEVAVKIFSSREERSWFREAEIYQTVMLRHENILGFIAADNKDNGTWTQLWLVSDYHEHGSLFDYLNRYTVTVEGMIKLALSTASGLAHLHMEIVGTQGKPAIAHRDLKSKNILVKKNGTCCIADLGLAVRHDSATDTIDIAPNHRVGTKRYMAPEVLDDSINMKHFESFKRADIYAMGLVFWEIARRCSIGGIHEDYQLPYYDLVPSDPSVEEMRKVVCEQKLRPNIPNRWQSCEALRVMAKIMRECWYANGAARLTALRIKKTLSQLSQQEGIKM
Description: Enzyme Activity Inhibition: 1. Preparation of a 1× kinase buffer: 40 mM Tris (pH 7.5), 20 mM MgCl2, 0.10% BSA, 1 mM DTT.2. Compound preparation: The final detection concentration of the compound was 10 μM, which was prepared to a 100-fold concentration, i.e., 1 mM. 100 μL of the 100-fold compound was added in the second well of the 384-well plate, and 60 μL of 100% DMSO was added to the other ….
In turn, `CNC(=O)c1cnc2ccc(/C=C\c3cccc(C)n3)cn12` yielded an IC50 of 0.0092 µM. That is a single-digit nanomolar value. Under `Cc1cccc(/C=C\c2ccc3ncc(C(=O)NOC4CCCCO4)n3c2)n1` (stereo not drawn) stands 0.035 µM; under `CNC(=O)c1cnc2ccc(/C=C/c3cccc(C)n3)cn12`, 0.088 µM.
